Values quoted from earlier work as cited in patent US20250297028A1, “TREATMENT OF RENAL CANCER USING A COMBINATION OF AN ANTI-PD-1 ANTIBODY AND ANOTHER ANTI-CANCER AGENT” (BRISTOL-MYERS SQUIBB COMPANY, priority 2014, published 2025).

Key:
[1] = human, in vivo; cited from earlier work
[2] = test system: renal cell carcinoma (RCC); conditions: basis of approval; cited from earlier work

Substance: IL-2: cytokine, systemic treatment for advanced or metastatic RCC
- toxicity: diarrhea [1]: 67%
- toxicity: dyspnea [1]: 43%
- toxicity: hypotension [1]: 71%
- toxicity: rash [1]: 42%
- toxicity: supraventricular tachycardia [1]: 12%
- durable response rate [2]: 15%
